How the values were obtained:
[1] = biological target: CCK-B receptors in small cell lung carcinoma (SCLC) tissue sections (Homo sapiens, UniProt P32239); assay: Receptor autoradiography: displacement of [125I]-CCK-10 analog (compound 15) binding to SCLC tissue sections; settings: increasing concentrations of unlabelled peptide
[2] = biological target: T1, CCK-B receptors in medullary thyroid carcinoma (MTC) tissue sections (Homo sapiens, UniProt P32239); assay: Receptor autoradiography: displacement of [125I]-desulfated-CCK-10 (compound 13 or 14) binding to MTC tissue sections; settings: increasing concentrations of unlabelled peptide
T1 construct: Receptor autoradiography is performed on 10- and 20-μm thick cryostat sections of the various tumour samples; from tissue; host or cells: human medullary thyroid carcinoma (MTC) tissue sections
T1 sequence (P32239 1-447): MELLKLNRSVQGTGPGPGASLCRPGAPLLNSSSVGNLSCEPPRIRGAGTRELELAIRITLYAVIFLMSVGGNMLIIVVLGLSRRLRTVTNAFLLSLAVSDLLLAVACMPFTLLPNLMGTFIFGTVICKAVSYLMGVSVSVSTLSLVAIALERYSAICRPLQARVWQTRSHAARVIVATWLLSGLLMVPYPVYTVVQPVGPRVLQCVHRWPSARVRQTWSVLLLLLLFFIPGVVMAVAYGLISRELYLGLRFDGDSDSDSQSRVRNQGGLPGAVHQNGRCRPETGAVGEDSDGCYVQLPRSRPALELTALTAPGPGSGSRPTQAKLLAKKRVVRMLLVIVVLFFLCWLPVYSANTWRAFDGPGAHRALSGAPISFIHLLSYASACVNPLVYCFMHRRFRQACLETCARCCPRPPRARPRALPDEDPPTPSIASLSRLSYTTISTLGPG

[3] = biological target: T1, CCK-B receptors in medullary thyroid carcinoma (MTC) tissue sections; assay: Receptor autoradiography: displacement of [125I]-CCK-10 analog (compound 15) binding to MTC tissue sections; settings: increasing concentrations of unlabelled peptide, optical density in tumour area

- displacement of [125I]-CCK-10 analog (compound 15) binding [1]: complete displacement
- displacement of [125I]-desulfated-CCK-10 (compound 13 or 14) binding [2]: complete displacement
- displacement of [125I]-CCK-10 analog (compound 15) binding [3]: complete displacement
Substance: Asp-Tyr(SO3H)-Met-Gly-Trp-Met-Aso-Phe-NH2 (MGWM; Asp-Tyr(SO3H) prefix, Asp-Phe-NH2 suffix; printed: Met-Gly-Trp-Met-) [compound 16, reference compound]

From patent US20040185510A1, “Use of labelled CCK-B receptor ligands for the detection and localization of malignant human tumours” (priority 1996, published 2004)
